## Cyclic peptide permeability, from CycPeptMPDB

Data: CycPeptMPDB; original report Townsend et al. 2020, doi:10.26434/chemrxiv.13335941.v1.

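Lipid, pH, incubation time, direction and concentration are not recorded in the data file. The list need not hold all peptides of the study. Entries at the database's floor value (log10 P of -10) are not listed.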

PAMPA measures passive passage through an artificial lipid membrane. Values are log10 P with P in cm/s, so -5 is more permeable than -7.

Listed for CC(C)C[C@@H]1C(=O)N(C)[C@H](CC(C)C)C(=O)N2CCC[C@H]2C(=O)N(C)[C@H](CC(C)C)C(=O)N[C@@H](Cc2ccccc2)C(=O)N[C@@H](C)C(=O)N1C: PAMPA -5.22 (log10 cm/s).
Listed for CC(C)C[C@@H]1NC(=O)[C@H](C)NC(=O)[C@@H]2CCCN2C(=O)[C@H](Cc2ccccc2)NC(=O)[C@H](CC(C)C)NC(=O)[C@@H]2CCCN2C(=O)[C@@H](CC(C)C)NC1=O: PAMPA -6.08 (log10 cm/s).
Listed for CC(C)C[C@@H]1C(=O)N[C@H](CC(C)C)C(=O)N2CCC[C@@H]2C(=O)N[C@H](CC(C)C)C(=O)N[C@@H](Cc2ccccc2)C(=O)N(C)[C@@H](C)C(=O)N1C: PAMPA -5.70 (log10 cm/s).
Listed for CC(C)C[C@H]1C(=O)N(C)[C@@H](CC(C)C)C(=O)N2CCC[C@@H]2C(=O)N(Cc2ccccc2)CC(=O)N[C@@H](Cc2ccccc2)C(=O)N2CCC[C@H]2C(=O)N[C@H](C)C(=O)N1C: PAMPA -5.57 (log10 cm/s).
Listed for CC(C)C[C@@H]1C(=O)N2CCC[C@H]2C(=O)N(Cc2ccccc2)CC(=O)N[C@@H](Cc2ccccc2)C(=O)N2CCC[C@H]2C(=O)N(C)[C@H](C)C(=O)N[C@H](CC(C)C)C(=O)N1C: PAMPA -5.36 (log10 cm/s).
Listed for CC(C)C[C@@H]1C(=O)N(C)[C@H](CC(C)C)C(=O)N2CCC[C@@H]2C(=O)N(C)[C@H](CC(C)C)C(=O)N[C@@H](Cc2ccccc2)C(=O)N2CCC[C@@H]2C(=O)N[C@@H](Cc2ccccc2)CC(=O)N1C: PAMPA -5.47 (log10 cm/s).
Listed for CC(C)C[C@@H]1C(=O)N[C@H](CC(C)C)C(=O)N2CCC[C@H]2C(=O)N(C)[C@@H](CC(C)C)C(=O)N[C@@H](Cc2ccccc2)C(=O)N[C@@H](Cc2ccccc2)CC(=O)N1C: PAMPA -5.11 (log10 cm/s).
Listed for CC(C)C[C@@H]1NC(=O)[C@@H](CC(C)C)NC(=O)[C@H](C)N(C)C(=O)[C@H]2CCCN2C(=O)[C@H](Cc2ccccc2)NC(=O)[C@@H](CC(C)C)N(C)C(=O)[C@H]2CCCN2C1=O: PAMPA -5.18 (log10 cm/s).
Listed for CC(C)C[C@@H]1C(=O)N[C@@H](Cc2ccccc2)C(=O)N[C@H](C)C(=O)N(C)[C@@H](CC(C)C)C(=O)N(Cc2ccccc2)CC(=O)N2CCC[C@@H]2C(=O)N1C: PAMPA -5.25 (log10 cm/s).
Listed for CC(C)C[C@@H]1C(=O)N2CCC[C@H]2C(=O)N(C)[C@@H](CC(C)C)C(=O)N[C@@H](Cc2ccccc2)C(=O)N2CCC[C@@H]2C(=O)N(C)[C@H](C)C(=O)N[C@H](CC(C)C)C(=O)N1C: PAMPA -4.93 (log10 cm/s).
Listed for CCCN1CC(=O)N(C)[C@@H](CC(C)C)C(=O)N(C)[C@H](CC(C)C)C(=O)N2CCC[C@H]2C(=O)N(C)[C@@H](CC(C)C)C(=O)N[C@@H](Cc2ccccc2)C(=O)N2CCC[C@H]2C1=O: PAMPA -5.04 (log10 cm/s).
Listed for CCCN1CC(=O)N(C)[C@H](CC(C)C)C(=O)N[C@@H](CC(C)C)C(=O)N2CCC[C@H]2C(=O)N(C)[C@H](CC(C)C)C(=O)N[C@@H](Cc2ccccc2)C1=O: PAMPA -4.82 (log10 cm/s).
Listed for CCCN1CC(=O)N(C)[C@@H](CC(C)C)C(=O)N(C)[C@H](CC(C)C)C(=O)N2CCC[C@@H]2C(=O)N(C)[C@@H](CC(C)C)C(=O)N[C@@H](Cc2ccccc2)C(=O)N2CCC[C@H]2C1=O: PAMPA -4.97 (log10 cm/s).
Listed for CC(C)C[C@H]1C(=O)N(C)[C@@H](CC(C)C)C(=O)N2CCC[C@H]2C(=O)N(C)[C@@H](CC(C)C)C(=O)N[C@@H](Cc2ccccc2)C(=O)N[C@H](C)C(=O)N1C: PAMPA -5.22 (log10 cm/s).
Listed for CC(C)C[C@@H]1NC(=O)[C@@H]2CCCN2C(=O)[C@H](CC(C)C)N(C)C(=O)[C@@H](CC(C)C)NC(=O)[C@H](C)NC(=O)[C@H](Cc2ccccc2)NC1=O: PAMPA -6.26 (log10 cm/s).
Listed for CC(C)C[C@@H]1C(=O)N[C@@H](Cc2ccccc2)C(=O)N[C@H](C)C(=O)N[C@H](CC(C)C)C(=O)N[C@@H](Cc2ccccc2)CC(=O)N2CCC[C@H]2C(=O)N1C: PAMPA -6.75 (log10 cm/s).
Listed for CC(C)C[C@H]1C(=O)N(Cc2ccccc2)CC(=O)N2CCC[C@H]2C(=O)N(C)[C@@H](CC(C)C)C(=O)N[C@@H](Cc2ccccc2)C(=O)N2CCC[C@H]2C(=O)N(C)[C@H](C)C(=O)N1C: PAMPA -5.22 (log10 cm/s).
Listed for CCCN1CC(=O)N[C@@H](CC(C)C)C(=O)N(C)[C@@H](CC(C)C)C(=O)N2CCC[C@H]2C(=O)N[C@H](CC(C)C)C(=O)N[C@@H](Cc2ccccc2)C(=O)N2CCC[C@@H]2C1=O: PAMPA -6.15 (log10 cm/s).
Listed for CC(C)C[C@@H]1C(=O)N[C@@H](Cc2ccccc2)CC(=O)N2CCC[C@@H]2C(=O)N[C@H](CC(C)C)C(=O)N[C@@H](Cc2ccccc2)C(=O)N[C@H](C)C(=O)N1C: PAMPA -5.81 (log10 cm/s).
Listed for CC(C)C[C@H]1NC(=O)[C@H]2CCCN2C(=O)CN(Cc2ccccc2)C(=O)[C@H](CC(C)C)N(C)C(=O)[C@H](C)NC(=O)[C@H]2CCCN2C(=O)[C@H](Cc2ccccc2)NC1=O: PAMPA -6.15 (log10 cm/s).
Listed for CC(C)C[C@@H]1C(=O)N[C@H](CC(C)C)C(=O)N2CCC[C@H]2C(=O)N(Cc2ccccc2)CC(=O)N[C@@H](Cc2ccccc2)C(=O)N2CCC[C@@H]2C(=O)N(C)[C@H](C)C(=O)N1C: PAMPA -5.16 (log10 cm/s).